The values that follow come from US12171744B2, “Pharmaceutical combinations for the treatment of cancer” (Presage Biosciences, Inc., priority 2016, dated 2024).

By UniProt entry, the sequences of proteins in these tests, tags left out.
UniProt P50750, whole entry: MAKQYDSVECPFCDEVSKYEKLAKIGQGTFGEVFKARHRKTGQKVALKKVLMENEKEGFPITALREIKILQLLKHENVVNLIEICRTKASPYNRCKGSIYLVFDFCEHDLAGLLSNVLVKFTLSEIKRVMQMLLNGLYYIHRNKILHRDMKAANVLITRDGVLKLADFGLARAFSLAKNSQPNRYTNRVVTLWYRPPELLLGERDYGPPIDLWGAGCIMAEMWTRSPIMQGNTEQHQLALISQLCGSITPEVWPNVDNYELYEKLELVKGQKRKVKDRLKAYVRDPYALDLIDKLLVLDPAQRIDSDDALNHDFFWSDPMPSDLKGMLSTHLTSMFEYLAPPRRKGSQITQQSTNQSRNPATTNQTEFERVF

The target of the test is CDK9 (Homo sapiens, UniProt P50750). Briefly: Kinase inhibition profiling (filter binding assay with γ-33P-ATP).

The structures appear in SMILES notation.

Regarding `CN1CC[C@H](c2c(O)cc(O)c3c(=O)cc(-c4ccccc4Cl)oc23)[C@H](O)C1` [flavopiradol, reference compound], the “inhibition of CDK9” value is given as “potent inhibitor”.
